Source: patent US20020198219A1, “2-pyridinamine compositions and related methods” (priority 2000, published 2002)

Key:
[1] = tested on: differentiated P19 neurons; assay: Differentiated P19 excitotoxicity assay (glutamate/glycine-induced death, Alamar Blue); assay type: cell-based, murine; conditions: read-out: IC50 for Neuroprotection [lower-upper 95% C.I.]; 3 mM glutamate + 1 mM glycine; mean of three separate curves
CAMKII = conditions: read-out: Potency, CAMKII; from the literature; cited from earlier work

## O=S(=O)(NCCNC/C=C/c1ccc(Br)cc1)c1cccc2cnccc12
[1]
  IC50: > 10 µM
CAMKII
  Ki: 30 µM
